Results published in patent publication US5434256A, “Diamine platinum complexes as antitumor agents” (priority 1994, dated 1995).

Experiment: Renal and hematological toxicity, single i.p. dose (Table 8)
Conditions: single i.p. dose (mg/kg): 1,4-DACH-Pt^II CBDCA 300, 1,4-DACH-Pt^IV Cl4 8.0, Tetraplatin 8.0, Cis-platin 12.0, Carboplatin 150

Cis- 1,4-diaminocyclohexane- 1,1-cyclobutanedicarboxylato-platinum(II).H2 O
Survivors on d.14: 5/5
